US12263171B2, “7-, 8-, and 10-substituted amino triazolo quinazoline derivatives as adenosine receptor antagonists, pharmaceutical compositions and their use” (Merck Sharp & Dohme LLC, priority 2018, dated 2025)

By UniProt entry, the sequences of proteins in these tests, tags left out.
UniProt P29275, whole entry: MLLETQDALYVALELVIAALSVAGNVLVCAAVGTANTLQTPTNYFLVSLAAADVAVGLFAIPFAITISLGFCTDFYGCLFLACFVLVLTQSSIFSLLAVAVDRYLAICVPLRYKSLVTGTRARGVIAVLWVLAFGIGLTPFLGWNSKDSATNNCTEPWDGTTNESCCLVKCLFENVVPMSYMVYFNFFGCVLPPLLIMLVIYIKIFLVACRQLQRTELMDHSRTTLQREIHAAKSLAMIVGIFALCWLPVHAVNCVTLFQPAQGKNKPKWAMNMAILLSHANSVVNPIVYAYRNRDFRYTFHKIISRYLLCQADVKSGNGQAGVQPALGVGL

What was measured:
[1] = target: human A2a adenosine receptor (Homo sapiens (Human), UniProt P29274); assay: A2A antagonism in cAMP cell-based assay (LANCE cAMP, HEK293 cells, 300 nM adenosine); details: read-out: *A2A cAMP IC50; values marked *: cAMP cell-based assay
[2] = target: T1, human A2b adenosine receptor (Homo sapiens (Human), UniProt P29275); assay: A2B antagonism in cAMP cell-based assay (LANCE cAMP, HEK293 cells, 600 nM adenosine); details: read-out: *A2B cAMP IC50; values marked *: cAMP cell-based assay
[3] = target: T1, human A2b adenosine receptor; assay: A2b radioligand filtration binding assay (tritiated proprietary A2b antagonist, HEK293 membranes); details: unstarred

| Compound | IC50 [1] | IC50 [2] | A2B binding % inh. @ 10000 nM [3] |
| --- | --- | --- | --- |
| CCC1CCC(c2nc3c4ccc(OC)cc4nc(N)n3n2)CN1c1cnn(CC(C)(C)O)c1 (single isomer, unassigned) | 68.8 nM | 2390 nM | – |
| COc1ccc2c(c1)nc(N)n1nc(C3CC(F)CN(c4cnn(CC(C)(C)O)c4)C3)nc21 (single isomer, unassigned) | 125 nM | – | 27% inh. @ 10000 nM |
